From patent US20160238596

Tested on: Indicator molecule containing the cleavable sequence GPQGIFGQ with a terminal biotin group connected via a polyethylene glycol spacer/linker (intact)

In the case of MMP 13 (Enzo), the Reader value (lateral flow, CF1522 gold) at 0.5 µg/ml MMP is reported as 6350 reader units.
